Laboratory results from patent US20110104103A1, “Method of conjugating therapeutic compounds to cell targeting devices via metal complexes” (KREATECH BIOTECHNOLOGY B.V., priority 2005, published 2011).

Columns and labels:
[1] = system: Jurkat leukemic T-cells
[2] = system: HUVEC; settings: 48 h, 100 ng/ml

TRAIL was tested, and the “cytotoxic activity (cell viability 48 h, caspases 4 h)” value [1] was “capable of killing tumour cells” and the HUVEC cell viability [2] was “not affected”.
